Assay results as given in US8987445B2, “Sulfonamide compounds having TRPM8 antagonistic activity” (Mitsubishi Tanabe Pharma Corporation, priority 2011, dated 2015).

The chains behind the UniProt entries cited, without tags or fusion partners.
UniProt Q7Z2W7, whole entry: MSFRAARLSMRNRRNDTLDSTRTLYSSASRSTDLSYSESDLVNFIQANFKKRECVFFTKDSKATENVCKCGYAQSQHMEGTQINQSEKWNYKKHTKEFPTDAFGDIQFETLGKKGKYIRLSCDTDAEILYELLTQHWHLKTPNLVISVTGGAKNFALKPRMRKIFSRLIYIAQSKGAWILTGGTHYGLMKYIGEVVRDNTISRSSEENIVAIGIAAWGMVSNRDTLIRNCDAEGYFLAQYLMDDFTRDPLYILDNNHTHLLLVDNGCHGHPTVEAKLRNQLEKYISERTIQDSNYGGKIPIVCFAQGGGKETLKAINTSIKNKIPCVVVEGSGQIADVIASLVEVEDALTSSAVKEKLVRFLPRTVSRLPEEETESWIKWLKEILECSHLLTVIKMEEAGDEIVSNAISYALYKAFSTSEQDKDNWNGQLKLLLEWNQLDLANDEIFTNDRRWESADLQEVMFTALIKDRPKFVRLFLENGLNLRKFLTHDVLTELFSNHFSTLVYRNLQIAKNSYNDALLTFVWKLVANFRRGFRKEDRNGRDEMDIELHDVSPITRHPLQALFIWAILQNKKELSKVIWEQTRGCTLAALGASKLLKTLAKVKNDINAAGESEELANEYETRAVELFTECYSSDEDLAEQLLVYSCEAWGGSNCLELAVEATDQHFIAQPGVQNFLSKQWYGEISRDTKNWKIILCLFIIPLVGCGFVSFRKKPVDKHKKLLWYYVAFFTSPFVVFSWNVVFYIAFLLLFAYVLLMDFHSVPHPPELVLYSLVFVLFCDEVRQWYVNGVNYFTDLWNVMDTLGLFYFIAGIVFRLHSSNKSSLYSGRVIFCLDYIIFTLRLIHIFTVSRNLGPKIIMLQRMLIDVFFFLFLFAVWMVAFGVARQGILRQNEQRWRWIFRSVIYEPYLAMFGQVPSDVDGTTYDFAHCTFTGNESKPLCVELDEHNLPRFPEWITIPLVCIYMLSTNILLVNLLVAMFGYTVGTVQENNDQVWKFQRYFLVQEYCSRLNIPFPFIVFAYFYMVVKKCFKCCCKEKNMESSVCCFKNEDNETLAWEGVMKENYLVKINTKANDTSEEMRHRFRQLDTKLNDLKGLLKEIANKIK

Target: human TRPM8 (Homo sapiens (Human), UniProt Q7Z2W7)
Test: TRPM8 inhibition assay (menthol-induced calcium influx, FDSS)
Format: cell-based
Settings: read-out: TRPM8 Blocking Test (IC50); HEK293 cells stably expressing human TRPM8; 100 μM menthol; Fura-2AM Ca2+ signal

With `O=C(O)c1ccc(S(=O)(=O)N(Cc2ccc(C(F)(F)F)cn2)c2ncc3ccccc3c2C2CC2)cc1` as the compound, how does the IC50 read?
The IC50 was 2.2 nM.
